# Test results published in ChEMBL document CHEMBL4334513, “Discovery of a Potent, Selective, and Orally Available MTHFD2 Inhibitor (DS18561882) with in Vivo Antitumor Activity” (J Med Chem, 2019).
# Target: T1, C-1-tetrahydrofolate synthase, cytoplasmic (Homo sapiens, UniProt P11586)
# T1 sequence (P11586 whole entry): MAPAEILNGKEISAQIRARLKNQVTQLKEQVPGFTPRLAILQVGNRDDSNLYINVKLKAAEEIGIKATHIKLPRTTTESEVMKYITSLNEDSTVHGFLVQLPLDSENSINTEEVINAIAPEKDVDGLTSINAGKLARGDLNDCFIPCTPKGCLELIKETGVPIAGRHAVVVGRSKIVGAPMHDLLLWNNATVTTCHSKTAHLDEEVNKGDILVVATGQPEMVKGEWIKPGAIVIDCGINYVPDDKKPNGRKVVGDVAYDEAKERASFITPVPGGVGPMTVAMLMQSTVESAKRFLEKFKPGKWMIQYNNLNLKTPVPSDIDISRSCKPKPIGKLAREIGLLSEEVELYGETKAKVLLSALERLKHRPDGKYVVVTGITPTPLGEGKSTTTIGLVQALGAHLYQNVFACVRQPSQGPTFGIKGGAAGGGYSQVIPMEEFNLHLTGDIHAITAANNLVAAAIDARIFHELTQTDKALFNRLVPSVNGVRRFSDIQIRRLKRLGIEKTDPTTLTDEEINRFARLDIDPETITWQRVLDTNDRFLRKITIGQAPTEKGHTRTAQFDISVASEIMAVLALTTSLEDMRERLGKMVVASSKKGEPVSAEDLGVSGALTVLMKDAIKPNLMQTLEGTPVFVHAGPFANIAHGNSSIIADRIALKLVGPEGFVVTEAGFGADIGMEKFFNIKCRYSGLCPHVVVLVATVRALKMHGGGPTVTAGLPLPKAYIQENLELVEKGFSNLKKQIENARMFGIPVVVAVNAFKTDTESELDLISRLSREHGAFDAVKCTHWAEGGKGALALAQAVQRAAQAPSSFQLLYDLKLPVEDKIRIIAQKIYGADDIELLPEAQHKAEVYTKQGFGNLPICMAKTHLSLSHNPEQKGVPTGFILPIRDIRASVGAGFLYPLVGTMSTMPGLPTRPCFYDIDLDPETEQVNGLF
structure (smiles),measurement,value
Cc1c(N2CCN(C)[C@H](C)C2)ccc2c3c(c(=O)oc12)CN(C(=O)c1ccc(NS(C)(=O)=O)c(Cl)c1)CC3,IC50,12 µM
